As usually defined, the DC50 is the midpoint of the concentration-degradation curve.

Sequences of proteins named here, by UniProt entry; tags and fusion partners are left off. A line that says so, or that is headed by a name, gives the form on record, which may keep a tag or linker. Residues count along the entry.
UniProt P00533, 25-1210 T790M/L858R limits assumed: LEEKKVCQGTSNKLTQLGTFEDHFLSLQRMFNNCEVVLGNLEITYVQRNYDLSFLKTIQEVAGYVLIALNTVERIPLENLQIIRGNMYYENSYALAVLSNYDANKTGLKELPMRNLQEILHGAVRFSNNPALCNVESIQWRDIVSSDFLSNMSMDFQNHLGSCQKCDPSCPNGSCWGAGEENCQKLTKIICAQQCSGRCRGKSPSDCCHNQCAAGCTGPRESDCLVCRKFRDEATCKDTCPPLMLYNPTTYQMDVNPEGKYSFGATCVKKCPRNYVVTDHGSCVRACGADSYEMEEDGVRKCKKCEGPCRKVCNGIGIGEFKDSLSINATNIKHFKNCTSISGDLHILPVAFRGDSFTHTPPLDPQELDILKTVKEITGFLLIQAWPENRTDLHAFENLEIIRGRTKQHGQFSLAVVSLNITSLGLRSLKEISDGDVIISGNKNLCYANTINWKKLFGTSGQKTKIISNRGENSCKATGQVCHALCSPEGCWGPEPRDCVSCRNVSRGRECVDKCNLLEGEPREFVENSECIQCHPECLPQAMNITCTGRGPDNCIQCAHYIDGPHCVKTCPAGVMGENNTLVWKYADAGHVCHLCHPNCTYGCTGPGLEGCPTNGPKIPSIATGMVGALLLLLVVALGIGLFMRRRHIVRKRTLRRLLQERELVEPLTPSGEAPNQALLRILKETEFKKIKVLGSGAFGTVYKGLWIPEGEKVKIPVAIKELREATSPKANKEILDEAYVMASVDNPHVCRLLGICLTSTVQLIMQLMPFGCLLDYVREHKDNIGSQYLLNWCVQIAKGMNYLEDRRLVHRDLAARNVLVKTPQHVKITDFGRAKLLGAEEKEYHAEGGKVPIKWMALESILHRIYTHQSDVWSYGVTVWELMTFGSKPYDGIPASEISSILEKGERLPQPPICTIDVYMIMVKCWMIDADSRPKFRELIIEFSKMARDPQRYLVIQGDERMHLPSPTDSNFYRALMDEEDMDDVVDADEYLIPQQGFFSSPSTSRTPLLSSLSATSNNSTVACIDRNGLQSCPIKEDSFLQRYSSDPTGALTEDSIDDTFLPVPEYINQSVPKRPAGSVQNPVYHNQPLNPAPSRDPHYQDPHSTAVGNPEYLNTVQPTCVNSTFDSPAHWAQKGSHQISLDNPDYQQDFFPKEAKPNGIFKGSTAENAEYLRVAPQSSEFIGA
UniProt P00533, 25-1210 T790M/C797S/L858R limits assumed: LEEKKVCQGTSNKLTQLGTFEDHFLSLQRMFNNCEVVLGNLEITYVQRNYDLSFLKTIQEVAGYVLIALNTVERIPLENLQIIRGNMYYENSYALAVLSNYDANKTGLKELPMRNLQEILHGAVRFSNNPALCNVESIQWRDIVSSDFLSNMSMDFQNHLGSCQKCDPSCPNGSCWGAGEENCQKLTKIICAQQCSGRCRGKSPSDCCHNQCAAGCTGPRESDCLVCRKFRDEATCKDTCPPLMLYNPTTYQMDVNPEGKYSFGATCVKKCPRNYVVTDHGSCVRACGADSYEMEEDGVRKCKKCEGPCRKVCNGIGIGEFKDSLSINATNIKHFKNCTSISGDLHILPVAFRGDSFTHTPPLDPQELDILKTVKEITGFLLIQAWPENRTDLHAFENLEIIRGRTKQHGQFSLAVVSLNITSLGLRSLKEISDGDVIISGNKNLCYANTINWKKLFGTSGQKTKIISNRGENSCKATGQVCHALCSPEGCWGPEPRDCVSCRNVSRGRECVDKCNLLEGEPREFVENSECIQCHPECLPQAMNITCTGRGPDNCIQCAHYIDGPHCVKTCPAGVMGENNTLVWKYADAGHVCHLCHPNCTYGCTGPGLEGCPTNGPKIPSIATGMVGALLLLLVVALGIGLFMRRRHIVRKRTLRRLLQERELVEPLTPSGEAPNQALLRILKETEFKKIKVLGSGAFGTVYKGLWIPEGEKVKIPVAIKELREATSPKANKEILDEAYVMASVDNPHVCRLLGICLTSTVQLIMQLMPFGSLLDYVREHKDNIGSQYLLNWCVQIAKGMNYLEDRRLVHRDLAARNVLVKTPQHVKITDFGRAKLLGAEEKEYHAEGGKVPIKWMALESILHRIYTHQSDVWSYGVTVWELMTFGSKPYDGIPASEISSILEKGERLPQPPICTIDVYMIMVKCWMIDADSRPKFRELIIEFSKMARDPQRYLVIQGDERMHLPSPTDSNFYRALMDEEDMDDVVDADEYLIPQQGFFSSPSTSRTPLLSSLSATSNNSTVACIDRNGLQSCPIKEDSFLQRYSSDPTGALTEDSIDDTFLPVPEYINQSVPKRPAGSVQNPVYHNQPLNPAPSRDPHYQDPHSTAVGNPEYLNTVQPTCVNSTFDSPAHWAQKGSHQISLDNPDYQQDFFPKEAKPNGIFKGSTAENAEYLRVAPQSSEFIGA
UniProt P00533, with tags, fused parts or gaps DEL746-750 limits assumed: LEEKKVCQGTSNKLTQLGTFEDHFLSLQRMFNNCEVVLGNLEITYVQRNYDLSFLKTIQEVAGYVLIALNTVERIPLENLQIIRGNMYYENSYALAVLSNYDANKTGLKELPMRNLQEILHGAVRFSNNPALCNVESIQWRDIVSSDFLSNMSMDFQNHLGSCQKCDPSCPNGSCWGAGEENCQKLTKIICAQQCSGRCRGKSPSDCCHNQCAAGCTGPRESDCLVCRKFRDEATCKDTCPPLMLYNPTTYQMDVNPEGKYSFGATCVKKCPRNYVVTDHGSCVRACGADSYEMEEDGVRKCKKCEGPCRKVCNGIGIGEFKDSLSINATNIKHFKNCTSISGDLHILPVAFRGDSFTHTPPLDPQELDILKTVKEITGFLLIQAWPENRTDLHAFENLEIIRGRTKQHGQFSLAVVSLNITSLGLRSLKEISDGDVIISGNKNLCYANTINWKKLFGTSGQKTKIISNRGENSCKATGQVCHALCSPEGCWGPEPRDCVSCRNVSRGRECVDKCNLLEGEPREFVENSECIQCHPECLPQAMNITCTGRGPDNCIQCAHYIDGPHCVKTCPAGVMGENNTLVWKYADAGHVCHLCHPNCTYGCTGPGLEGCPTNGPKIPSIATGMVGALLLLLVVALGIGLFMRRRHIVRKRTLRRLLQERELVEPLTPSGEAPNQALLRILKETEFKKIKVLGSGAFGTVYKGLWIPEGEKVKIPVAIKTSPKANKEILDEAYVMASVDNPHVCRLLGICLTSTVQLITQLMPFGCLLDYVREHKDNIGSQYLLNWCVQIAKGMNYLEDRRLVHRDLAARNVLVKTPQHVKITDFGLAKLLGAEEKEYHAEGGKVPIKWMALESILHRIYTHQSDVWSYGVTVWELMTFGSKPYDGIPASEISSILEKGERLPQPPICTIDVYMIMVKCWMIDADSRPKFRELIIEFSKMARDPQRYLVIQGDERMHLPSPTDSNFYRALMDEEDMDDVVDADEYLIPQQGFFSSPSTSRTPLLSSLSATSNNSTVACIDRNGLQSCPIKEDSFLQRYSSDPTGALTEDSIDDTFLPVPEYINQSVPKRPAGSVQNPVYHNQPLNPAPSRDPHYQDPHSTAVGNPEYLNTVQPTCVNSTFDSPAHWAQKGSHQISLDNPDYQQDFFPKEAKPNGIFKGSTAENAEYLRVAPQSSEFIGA

Assay [1] deals with EGFR L858R/T790M/C797S (BaF3-LTC cells) (Homo sapiens, UniProt P00533, C797S/L858R/T790M). Put plainly: EGFR degradation HTRF assay, BaF3-LTC cells. Format: cell-based. Here is the method: (§1) BaF3 WT(wild type), BaF3-LTC(L858R/T790M/C797S) and BaF3-DTC(Del19/T790M/C797S) cells are treated with compounds diluted in 0.2% DMSO cell culture medium and incubate for 16h, 37° C., 5% CO2, H1975-#36, H1975-#28, H1975-#23 and HCC827 cells are treated with compounds diluted in 0.2% DMSO cell culture medium on day 2, incubate for 16h, 37° C., 5% CO2.the final concentriation of compounds in all assay is start with 10 uM, 5-fold dilution, total 8 doses were included.
(§2) After 16h treatment, add HTRF lysis buffer to each well; seal the plate and incubate 1 hour at room temperature on a plate shaker; Once the cells are lysed, 16 μL of cell lysate are transferred to a PE 384-well HTRF detection plate; 4 μL of pre-mixed HTRF antibodies are added to each well; Cover the plate with a plate sealer, spin 1000 rpm for 1 min, Incubate overnight at room temperature; Read on BMG PheraStar with HTRF protocol (337 nm-665 nm-620 nm).
(§3) The inhibition (degradation) percentage of the compound was calculated by the following equation: Inhibition percentage of Compound=100-100×(Signal-low control)/(High control-low control), wherein signal=each test compound group
(§4) High control=Cell group with added DMSO and without compound, indicating microplate readings without EGFR degradation;
(§5) Dmax is the maximum percentage of inhibition (degradation). […]
On the technique in general: Time-resolved FRET reads energy transfer from a long-lived donor to a nearby acceptor.

Assay [2] deals with EGFR Del19/T790M/C797S (H1975-clone #28). Kind of assay: EGFR degradation HTRF assay, H1975-clone #28 DTC cells. In kind it is cell-based. The settings on record: H1975 # 28 DTC cells. Here is the method:
H1975-clone #28(Del19/T790M/C797S) and H1975-clone #23(Del19/C797S). EGFR-Del19/T790M/C797S and EGFR-Del19/C797S were stably expressed in H1975 cell lines by lentivirus-mediated over-expression, respectively. The EGFR over-expressed cells then underwent gene knockout, in which the EGFR targeting sgRNA was designed to only target the endogenous EGFR copies and preserve the exogenous EGFR copies. Followed by the gene knockout, the edited H1975 cells were seeded in 96 well plates at the concentration of 1 cell/well, cultured for about 2 weeks to allow single clones formation. The formed clones were screened by DNA sequencing and whole exon sequencing analysis for the desired edition. […]
as §2
(§6) The inhibition (degradation) percentage of the compound was calculated by the following equation: Inhibition percentage of Compound=100-100×(Signal-low control)/(High control-low control), wherein signal=each test compound group […]

For assay [3], the target named is EGFR (HCC827 cells) (Homo sapiens, UniProt P00533, DEL746-750). Kind of assay: EGFR degradation HTRF assay, HCC827 cells. To be noted: HCC827, 16h treatment. Here is the method:
as §1, §2, §3, §4, §5

Assay [4] concerns the target EGFR L858R/T790M (H1975-clone #36, homozygous) (Homo sapiens, UniProt P00533, L858R/T790M). Kind of assay: EGFR degradation HTRF assay, H1975-clone #36 cells. The settings on record: H1975 #36, 16h treatment. Here is the method:
H1975-clone #36(L858R/T790M). H1975 cell heterozygously (from ATCC) contains alleles of WT and L858R/T790M EGFR. H1975-clone #36(L858R/T790M) was generated by gene knockout, in which the EGFR targeting sgRNA was designed to specifically target WT EGFR but preserve the L858R/T790M copy. Followed by the gene knockout, the edited H1975 cells were seeded in 96 well plates at the concentration of 1 cell/well, cultured for about 2 weeks to allow single clones formation. The formed clones were screened by DNA sequencing for the desired edition. H1975-clone #36 was confirmed as a homozygous L858R/T790M EGFR clone. […]
as §2, §6

[5] abbreviates: maximum percentage of inhibition (degradation).
[6] abbreviates: maximum percentage of degradation.

Bounds are passed on as bounds.

Take `CCOc1cc(N2CCC(N3CCN(C(=O)[C@@H]4CCN(c5cc(F)c(C6CCC(=O)NC6=O)c(F)c5)C4)CC3)CC2)c(CC)cc1Nc1ncc(Br)c(Nc2ccc3cnc(C)cc3c2P(C)(C)=O)n1` (some centres unmarked): the “Dmax (%) BaF3-LTC” value in assay [1] (setting [5]) worked out at 72.22%. The DC50 came out at 15.9 nM in assay [1] (read-out: DC50(nM) BaF3-LTC, EGFR degradation, IC50 (DC50) from curve fit) and 2.27 nM in assay [2] (read-out: DC50(nM) H1975 # 28 DTC, EGFR degradation, IC50 (DC50) from curve fit). In addition, the “Dmax (%) H1975 # 28 DTC” value in assay [2] (setting [5]) is listed as 77.55%.
Regarding `COc1cc(N2CCC(N(C)CC3CCN(c4ccc(N5CCC(=O)NC5=O)cc4C)CC3)CC2)c(C)cc1Nc1ncc(Br)c(Nc2ccc3nccnc3c2P(C)(C)=O)n1`, the “HCC827 Dmax (%)” value in assay [3] (setting [6]) is 65.89%. The DC50 in assay [3] (read-out: HCC827 DC50) was 29.1 nM; in assay [4] (read-out: H1975 #36 DC50), greater than 10000 nM. The “H1975 #36 Dmax (%)” value in assay [4] (setting [6]) is 10.7%.

The record behind these values is US20230265116A1, “DEGRADATION OF (EGFR) BY CONJUGATION OF EGFR INHIBITORS WITH E3 LIGASE LIGAND AND METHODS OF USE” (BEIGENE, LTD., priority 2020, published 2023).
